Results from patent US20260232826A1, “ANTIBODY-DRUG CONJUGATES AND THEIR USES” (Mablink Bioscience, priority 2022, published 2026).
Read-outs that look alike come from different tables or passages of the source.

Sequences of proteins named here, by UniProt entry; tags and fusion partners are left off. Residues count along the entry.
UniProt P15328, 25-234 limits assumed: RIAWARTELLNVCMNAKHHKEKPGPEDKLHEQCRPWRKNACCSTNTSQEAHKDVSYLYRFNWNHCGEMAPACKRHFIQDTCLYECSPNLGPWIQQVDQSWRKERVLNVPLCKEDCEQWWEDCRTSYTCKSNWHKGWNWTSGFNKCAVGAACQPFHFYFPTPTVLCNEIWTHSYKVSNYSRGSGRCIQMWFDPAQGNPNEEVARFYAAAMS

Assays:
SW-620 cancer model = test: In vivo efficacy, SW-620 xenograft; parameters: species or system SCID mice
Description: (§1) Four to five-week-old female CB-17 severe combined immunodeficient (SCID) mice are obtained and quarantined for 7 days prior to study initiation. Mice are inoculated subcutaneously with cells (5-10×10^6 cells per mouse) resuspended in PBS (OV-90, SW-620, KB, BT-474 cell lines) or 50% BD Matrigel (Corning®) in PBS (PA-1, IGROV-1, OVCAR-3, NCI-H2110 cell lines). When average tumor volume reached about 120-150 mm^3 mice are randomized (typically 7 mice per group) and treated by a single (unless stated otherwise) intravenous injection of PBS (negative control) or investigated antibody-drug conjugate. Tumor volumes are measured every 3-5 days using a caliper device (length×width) and calculated using the following formula V=4/3×π×R3, where R represents the radius. Mice are sacrificed when the tumor volume exceeded 1500 mm^3 or in case of ulceration of the tumor.
as §1, with “were” for “are”, “obtained from Janvier labs (Le Genest-Saint-Isle, France)” for “obtained”, “V=4/3×π×R^3,” for “V=4/3×π×R3,”

OV-90 cancer model = test: In vivo efficacy, OV-90 xenograft; settings: IV once at 30 mg/kg (FIG. 11)
Description: as §1
as §1, with “were” for “are”, “obtained from Janvier labs (Le Genest-Saint-Isle, France)” for “obtained”, “V=4/3×π×R^3,” for “V=4/3×π×R3,”

KB cancer model = test: In vivo efficacy, KB xenograft; parameters: species or system SCID mice; settings: IV once at 3, 6 and 12 mg/kg; NEG-VA-EXA 12 mg/kg (FIG. 13)
Description: as §1
as §1, with “were” for “are”, “obtained from Janvier labs (Le Genest-Saint-Isle, France)” for “obtained”, “V=4/3×π×R^3,” for “V=4/3×π×R3,”

[1] = Mice tolerability experiment (SCID mice); format: in vivo
Experimental: To assess mice preclinical therapeutic index, mouse tolerability experiments were performed with F-VA-EXA, F-LALA-VA-EXA and M-SORAV conjugates. […] Mice were carefully monitored for weight loss or apparent signs of toxicity over the course of 21 days.

[2] = Pulmonary inflammatory and toxicity evaluation in mice; parameters: species or system C57/BL6 mice; Lung inflammatory level by CD45 expression (leucocyte infiltration): key to the marks not given beside the values; settings: mouse, in vivo
Description: Bleomycin has been widely used in rodents to model pulmonary fibrosis for the study of mechanisms involved in fibrogenesis and for evaluation of potential therapies. To assess ADC pulmonary toxicity, bleomycin-induced pulmonary fibrosis was induced in mice following known procedures as described by Walter and Kleeberger, Mouse Models of Bleomycin-Induced Pulmonary Fibrosis, 2008, Curr. Protoc. Pharmacol. 40:5.46.1-5.46.17. At day 0, 4 and 8, female C57/BL6 mice (Janvier Labs, Le Genest-Saint-Isle, France) were lightly anesthetized with isoflurane and intranasally administered with 20 μL of 1 mg/kg bleomycin PBS solution (Bleomycine Bellon, 15 mg for injection) or PBS (negative control mice). Non-bleomycin-conditioned mice were included as a negative control group. At day 11, mice (n=6 animals per group) were treated with tested conjugates (10 mg/kg i.p.) and were monitored for apparent signs of toxicity and weight loss during the duration of the experiment. […] At day 25 all mice were sacrificed, broncho-alveolar supernatant was obtained (by broncho-alveolar lavage) and lungs organs were harvested, weighted, and fixed in 0.1% (w/v) formaldehyde in PBS. After fixation, lungs were rinsed with a 0.02% (w/v) sodium azide in PBS solution and embedded in paraffin for histological staining. Slides were stained with anti-CD45 antibody (Abcam cat #ab10558, 1:500) to quantify level of leucocyte infiltration in the lungs. Secondary biotinylated goat anti-rabbit antibody (Vector Laboratories cat #BA-1000, 1:300) and Avidin-HRP (Vector Laboratories cat #A-2004) were used for detection. Histological experiments and imaging were outsourced at the Centre d'Imagerie Quantitative Lyon-Est (CiQLE) platform (Lyon, France). Random sections of IHC images (30% zoomed) were processed using native functionalities of the Fiji software (developed and maintained by the Laboratory for Optical and Computational Instrumentation of the University of Wisconsin-Madison, USA) to count CD45 positive cells within slides (1 slide per lung) and assess level of leucocyte infiltration. Monitoring of total counts of lymphocytes (CD3/CD4), eosinophils (CCR3/SiglecF), neutrophils (Ly6g/Ly6C) and macrophages (F4/80) in broncho-alveolar supernatants obtained from non-bleomycin-conditioned mice was done by flow cytometry. Inflammatory cytokines levels in broncho-alveolar supernatants obtained from non-bleomycin-conditioned mice were quantified by ELISA. IL-2, IL-4, IL-5, IL-6, IL-9, IL-10, IL-13 were quantified using Bio-Plex Pro™ Mouse Cytokine Th2 Panel (Bio-Rad cat #L60000UKVT), following manufacturer's instructions. TGF-β and IL-17 were quantified using Mouse TGF-beta 1 DuoSet and Mouse IL-17 DuoSet ELISA kits respectively (R&D systems cat #DY1679 and DY421), following manufacturer's instructions.
Statistical significance was evaluated using one-way ANOVA (Tukey method) using GraphPad Prism 9 software. p-values are represented as * (p<0.033), ** (p<0.002), *** (p<0.0002), and **** (p<0.0001) and “ns” stands for non-significant (p>0.123).

cancer xenograft models = test: In vivo xenografts experiments overall (effective dose range); parameters: species or system SCID mice; settings: Table 10
Description: as §1
as §1, with “were” for “are”, “obtained from Janvier labs (Le Genest-Saint-Isle, France)” for “obtained”, “V=4/3×π×R^3,” for “V=4/3×π×R3,”

[3] = rat, in vivo, iv, 5 mg/kg
FIGURE 19 = test: FIGURE 19
Description: Table printed on a drawing sheet, FIGURE 19
The patent's description of the figure: FIG. 19 represents in vivo rat pharmacokinetic assessment of total mAb, total ADC and free exatecan sub-components of conjugates, according to example 14.
First reader's note: Pharmacokinetic parameters refer to the Total ADC analyte of each conjugate.

[4] = target: T1, recombinant human folate receptor alpha protein (Homo sapiens, UniProt P15328); test: kd (1/s)
T1 construct: purchased Sino Biological 11241-H08H
Description: Table printed on a drawing sheet, FIGURE 5
Head of the field: kd (1/s)
Footnotes: ka: association rate constant, mean calculated over replicates / s.d. ka: standard deviation of association rate constant / kd: dissociation rate constant, mean calculated over replicates / s.d. kd: standard deviation of dissociation rate constant / KD: affinity constant, calculated as kd/ka / s.d. KD: standard deviation of affinity constant / n.d.: not determined
The patent's description of the figure: FIG. 5 represents in vitro surface plasmon resonance (SPR) binding experiments of conjugates against recombinant human folate receptor alpha protein, according to example 8.
First copying reader's note: Records are a mix of naked antibodies and their antibody-drug conjugates; the numbers 5, 10, 15, 20 at the left margin are line numbers, not table content.
Where the first naming reader finds the target: description_of_the_figure: binding experiments of conjugates against recombinant human folate receptor alpha protein

B1: F-VA-EXA (conjugate)
heavy chain: EVQLVESGGGVVQPGRSLRLSCSASGFTFSGYGLSWVRQAPGKGLEWVAMISSGGSYTYYADSVKGRFAISRDNAKNTLFLQMDSLRPEDTGVYFCARHGDDPAWFAYWGQGTPVTVSSASTKGPSVFPLAPSSKSTSGGTAALGCLVKDYFPEPVTVSWNSGALTSGVHTFPAVLQSSGLYSLSSVVTVPSSSLGTQTYICNVNHKPSNTKVDKKV[gap - human IgG1 Fc]
light chain: DIQLTQSPSSLSASVGDRVTITCSVSSSISSNNLHWYQQKPGKAPKPWIYGTSNLASGVPSRFSGSGSGTDYTFTISSLQPEDIATYYCQQWSSYPYMYTFGQGTKVEIKRTVAAPSVFIFPPSDEQLKSGTASVVCLLNNFYPREAKVQWKVDNALQSGNSQESVTEQDSKDSTYSLSSTLTLSKADYEKHKVYACEVTHQGLSSPVTKSFNRGEC
modifications: N-methyl
antitumor activity, SW-620 xenograft (SW-620 cancer model; IV once at 1, 3 and 6 mg/kg, NEG-VA-EXA 6 mg/kg (FIG. 10)): equally highly active at a dose of 1 mg/kg and above | antitumor activity, SW-620 xenograft (SW-620 cancer model; IV once at 5, 10 or 15 mg/kg (FIG. 9)): highly active at a dose of 5 mg/kg and above | toxicities observed in OV-90 xenograft study (OV-90 cancer model): No toxicities were observed | antitumor activity, KB xenograft (KB cancer model): equally active at a dose of 3 mg/kg and above | Maximum Tolerated Dose in SCID mice (MTD) ([1]; Table 10): Above 200 mg/kg | tolerability in SCID mice ([1]; single intraperitoneal dose of 200 mg/kg, 21 days (FIG. 18)): well tolerated with no apparent signs of toxicity | Lung inflammatory level by CD45 expression (leucocyte infiltration) [2]: ++ | inflammatory cytokine levels in broncho-alveolar supernatants compared to untreated group [2]: no significant increase in cytokine levels | leucocyte inflammatory infiltration (IHC CD45) compared to untreated group [2]: no significant increase | lymphocyte counts in broncho-alveolar supernatants compared to untreated control group [2]: significant increase in lymphocyte counts | macrophages, neutrophils and eosinophils counts in broncho-alveolar supernatants compared to untreated control group [2]: no statistically significant increase | leucocyte inflammatory infiltration (IHC CD45) compared to bleomycin-conditioned control group ([2]; ip, 10 mg/kg): significant increase | Effective dose (ED) range based on in vivo xenografts experiments (SCID mice) (cancer xenograft models): 1 to 10 mg/kg | clearance rates [3]: slow clearance rates | half-life [3]: 13 to 15 days | AUC0-inf (FIGURE 19): 3501 µM/day | Clearance rate (FIGURE 19): 5.0 mL/day/kg | Vss (steady-state Vd) (FIGURE 19): 0.11 L/kg | half-life (FIGURE 19): 13.5 days | kd [4]: 0.0306 s⁻¹
